The list shows a part of the results, in another mix than the full data. Calls of active or inactive are those of the source. No stated cut-off is given here; in the data, active means activation above about 33% (passing the limit was not always enough); inactive means the rest.
Target: Neuropeptide Y receptor type 1 (Homo sapiens) (UniProt P25929)
Experiment: activation enhancers of human NPY-Y1 – cell-based, primary screen (AID 1304);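 further: cells stimulated with NPY at EC10 then isoproterenol at EC100; 0% = low agonist plus stimulus and 100% = saturating agonist plus stimulus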
Conditions: NPY-Y1 expressing cells, potentiator/agonist activation; at 3.6 µM; active compounds read high

Chains of the proteins cited; added tags and fusions are not shown.
UniProt P25929, whole entry: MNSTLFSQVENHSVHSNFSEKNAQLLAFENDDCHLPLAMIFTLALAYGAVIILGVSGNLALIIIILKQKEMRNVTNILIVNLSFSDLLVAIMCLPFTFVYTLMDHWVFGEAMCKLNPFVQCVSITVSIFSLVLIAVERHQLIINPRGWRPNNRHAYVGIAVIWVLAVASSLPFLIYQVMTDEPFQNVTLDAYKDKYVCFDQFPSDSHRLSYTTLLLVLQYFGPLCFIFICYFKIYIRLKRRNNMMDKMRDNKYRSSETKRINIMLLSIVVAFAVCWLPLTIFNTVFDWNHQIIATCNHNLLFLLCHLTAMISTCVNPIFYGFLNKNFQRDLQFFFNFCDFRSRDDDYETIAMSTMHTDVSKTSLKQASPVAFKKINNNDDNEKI

| Compound | activation |
| --- | --- |
| Cc1ccc(NP(C)(=O)Oc2ccccc2)c(C)c1 (configuration not stated) | inactive: 22.9% |
| COc1ccccc1OP(C)(=O)Nc1ccc(C)cc1 (configuration not stated) | inactive: 3.62% |
| CCOC(=O)c1ccc(NP(C)(=O)Oc2ccccc2)cc1 (configuration not stated) | inactive: 12.6% |
| Cc1cc(C)cc(OP(C)(N)=O)c1 (configuration not stated) | inactive: 8.47% |
| COc1ccc(OP(C)(=O)Nc2cccc(F)c2)cc1 (configuration not stated) | inactive: 29.6% |
| COc1ccccc1OP(C)(=O)Nc1cc(Cl)ccc1C (configuration not stated) | inactive: -10.9% |
| O=[N+]([O-])c1ccc2c(c1)C=Nc1ccccc1O2 | inactive: 16.8% |
| Cc1cccc(C)c1OP(C)(N)=O (configuration not stated) | inactive: -13.6% |
| CC(C)(C)c1ccc(OP(C)(=O)Nc2ccc(SC(F)(F)F)cc2)cc1 (configuration not stated) | inactive: -2.93% |
| CCN(CC)CCCOC(=O)C(O)(c1ccccc1)c1ccccc1 | inactive: -6.21% |
| CCOC(=O)c1ccc(NP(C)(=O)Oc2ccc(OC)cc2)cc1 (configuration not stated) | inactive: -10.2% |
| CCOP(C)(=S)SCC(=O)NC(C)C(=O)O (configuration not stated) | inactive: -8.22% |
| CP(=O)(Nc1ccccn1)Oc1ccc(Cl)cc1 (configuration not stated) | inactive: -20.1% |
| CP(=O)(Oc1ccccc1)OC(c1ccccc1)C(F)(F)F (configuration not stated) | inactive: 8.59% |
| Cc1cccc(C)c1OP(C)(=O)Nc1ccc(SC(F)(F)F)cc1 (configuration not stated) | inactive: 16.3% |
| CP(=O)(Nc1ccc(SC(F)(F)F)cc1)Oc1ccc(Cl)cc1 (configuration not stated) | inactive: 5.74% |
| Cc1cc(C)cc(OP(C)(=O)Nc2ccc(SC(F)(F)F)cc2)c1 (configuration not stated) | inactive: -18% |
| CP(=O)(NC(=O)Nc1ccccc1)Oc1ccccc1 (configuration not stated) | inactive: -18.9% |
| CCc1ccc(OP(C)(=O)N2CCN(c3ccc([N+](=O)[O-])cc3)CC2)cc1 (configuration not stated) | inactive: -9.98% |
| CP(=S)(Nn1cnnc1)Oc1ccccc1 (configuration not stated) | inactive: -27.2% |
| CP(=O)(Nc1ccccc1Br)Oc1ccccc1 (configuration not stated) | inactive: 1.9% |

| Compound | activation |
| --- | --- |
| COc1ccccc1OP(C)(=O)Nc1ccccc1 (configuration not stated) | inactive: -1.71% |
| COc1ccccc1OP(C)(=O)Nc1c(C)cccc1C (configuration not stated) | inactive: 9.83% |
| CN1CCCCC1COC(=O)C1(O)c2ccccc2CCc2ccccc21 (configuration not stated) | inactive: -40.5% |
| CCCOc1ccc(NP(C)(=O)Oc2ccc(Cl)cc2)cc1 (configuration not stated) | inactive: -16.5% |
| CP(=O)(Nc1ccc(SC(F)(F)F)cc1)Oc1ccccc1 (configuration not stated) | inactive: 13.2% |
| CCOC(=O)C(CC)C1=NC(C)(C)Cc2ccccc21.O=[N+]([O-])c1cc([N+](=O)[O-])c(O)c([N+](=O)[O-])c1 (configuration not stated) | inactive: -24.6% |
| O=[N+]([O-])c1cc([N+](=O)[O-])c(Nc2nnnn2CCO)c([N+](=O)[O-])c1 | inactive: 2.82% |
| Cc1nc2ccc3ccccc3c2s1.O=[N+]([O-])c1cc([N+](=O)[O-])c(O)c([N+](=O)[O-])c1 | inactive: -17.2% |
| O=[N+]([O-])c1cc([N+](=O)[O-])c(-n2nnc3ccccc32)c([N+](=O)[O-])c1 | inactive: 0.01% |
| Cc1ccc(C)c(NP(C)(=O)Oc2ccccc2)c1 (configuration not stated) | inactive: 6.58% |
| Cc1cc(C)cc(OP(C)(=O)Nc2ccccn2)c1 (configuration not stated) | inactive: 5.38% |
| CP(=O)(Nc1cccc(Br)c1)Oc1ccccc1 (configuration not stated) | inactive: -8.16% |
| COc1ccccc1OP(C)(=O)Nc1cccc(Br)c1 (configuration not stated) | inactive: 6.89% |
| CCOC(=O)c1ccc(NP(C)(=O)Oc2cc(C)cc(C)c2)cc1 (configuration not stated) | inactive: -21.4% |
| Cc1cc(C)cc(OP(C)(=O)Nc2ccc(C)cc2C)c1 (configuration not stated) | inactive: 5.83% |
| CC1=NCCc2c1[nH]c1ccccc21.O=[N+]([O-])c1cc([N+](=O)[O-])c(O)c([N+](=O)[O-])c1 | inactive: -31.7% |
| O=C(O)c1cccc(Nc2c([N+](=O)[O-])cc([N+](=O)[O-])cc2[N+](=O)[O-])c1 | inactive: 7.54% |
| CCN(CC)CCCOC(=O)C(O)(c1ccccc1)C1CCCCC1 (configuration not stated) | inactive: -39% |
| CP(=O)(Nc1ccccc1)Oc1ccc(F)cc1 (configuration not stated) | inactive: 20.5% |
| CCCCCOc1ccc(NP(C)(=O)Oc2ccc(Cl)cc2Cl)cc1 (configuration not stated) | inactive: -23% |
| CCOC(=O)c1ccc(NP(C)(=O)Oc2ccc(F)cc2)cc1 (configuration not stated) | inactive: 1.1% |

| Compound | activation |
| --- | --- |
| COc1ccc(OP(C)(=O)Nc2ccc(SC(F)(F)F)cc2)cc1 (configuration not stated) | inactive: 12.4% |
| O=C(OC1CN2CCC1CC2)c1ccc([N+](=O)[O-])cc1 (configuration not stated) | inactive: 2.37% |
| O=C(OCCN1CCN(CCOCc2ccccc2)CC1)C(O)(c1ccccc1)c1ccccc1 | inactive: 5.7% |
| CP(=O)(Nc1ccccc1F)Oc1ccccc1 (configuration not stated) | inactive: 9.33% |
| CC(C)c1ccc(OP(C)(=O)Nc2ccc(SC(F)(F)F)cc2)cc1 (configuration not stated) | inactive: 2.42% |
| CP(=O)(Nc1ccc2c(c1)OCCO2)Oc1ccccc1 (configuration not stated) | inactive: 12.1% |
| Cc1ccccc1NP(C)(=O)Nc1ccccc1C | inactive: 0.53% |
| CP(=O)(Nc1ccc(SC(F)(F)F)cc1)Oc1ccc(F)cc1 (configuration not stated) | inactive: 36.2% |
| CCOP(C)(=S)SCC(=O)NC(C)(CC)C(=O)O (configuration not stated) | inactive: 3.74% |
| O=[N+]([O-])c1ccc(OP2(=O)COCCO2)cc1 (configuration not stated) | inactive: 1.49% |
| O=[N+]([O-])c1cc([N+](=O)[O-])c(NCC2CCS(=O)(=O)C2)c([N+](=O)[O-])c1 (configuration not stated) | inactive: 3.49% |
| Cc1cc(-c2cccc3ccccc23)c(C)cn1.O=[N+]([O-])c1cc([N+](=O)[O-])c(O)c([N+](=O)[O-])c1 | inactive: -12.8% |
| COc1ccc(OP(C)(=O)Nc2cccc(Br)c2)cc1 (configuration not stated) | inactive: 18.4% |
| CN(C)CCOC(=O)C(O)(c1ccccc1)C1CCCCC1 (configuration not stated) | inactive: 2.19% |
| COc1ccc(NP(C)(=O)Oc2ccccc2OC)cc1 (configuration not stated) | inactive: 7.09% |
| CCOC(=O)c1ccc(NP(C)(=O)Oc2ccc(Cl)cc2)cc1 (configuration not stated) | inactive: -3.96% |
| CP(=O)(OC12CC3CC(CC(C3)C1)C2)OC12CC3CC(CC(C3)C1)C2 | inactive: 3.4% |
| COc1ccccc1OP(C)(=O)Nc1ccccc1Br (configuration not stated) | inactive: 17.4% |
| CC(C)(C)c1ccc(OP(C)(=O)O)cc1 | inactive: -19.5% |
| CP(=O)(Nc1ccc(Cl)cc1)Oc1ccc(F)cc1 (configuration not stated) | inactive: 12.6% |

Source: PubChem BioAssay AID1304 (The Scripps Research Institute Molecular Screening Center, 2008)
